Measured values reported in PMC3961306, “Comparison of the Cancer Gene Targeting and Biochemical Selectivities of All Targeted Kinase Inhibitors Approved for Clinical Use” (PLoS ONE, 2014).

Chains of the proteins cited; added tags and fusions are not shown. Residues count along the entry.
UniProt Q16816, whole entry, stated change not applied: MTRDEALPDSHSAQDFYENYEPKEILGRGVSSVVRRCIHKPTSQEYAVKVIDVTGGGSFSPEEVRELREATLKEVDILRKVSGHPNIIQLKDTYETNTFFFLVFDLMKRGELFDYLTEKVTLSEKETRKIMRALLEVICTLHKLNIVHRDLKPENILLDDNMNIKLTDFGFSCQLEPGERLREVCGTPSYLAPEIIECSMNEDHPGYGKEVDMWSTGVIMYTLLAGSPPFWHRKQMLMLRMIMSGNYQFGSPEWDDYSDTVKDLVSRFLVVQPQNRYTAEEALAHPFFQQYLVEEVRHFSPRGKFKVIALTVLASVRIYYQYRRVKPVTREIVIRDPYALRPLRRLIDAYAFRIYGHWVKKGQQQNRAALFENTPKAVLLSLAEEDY
UniProt P30530, 26-894, stated change not applied: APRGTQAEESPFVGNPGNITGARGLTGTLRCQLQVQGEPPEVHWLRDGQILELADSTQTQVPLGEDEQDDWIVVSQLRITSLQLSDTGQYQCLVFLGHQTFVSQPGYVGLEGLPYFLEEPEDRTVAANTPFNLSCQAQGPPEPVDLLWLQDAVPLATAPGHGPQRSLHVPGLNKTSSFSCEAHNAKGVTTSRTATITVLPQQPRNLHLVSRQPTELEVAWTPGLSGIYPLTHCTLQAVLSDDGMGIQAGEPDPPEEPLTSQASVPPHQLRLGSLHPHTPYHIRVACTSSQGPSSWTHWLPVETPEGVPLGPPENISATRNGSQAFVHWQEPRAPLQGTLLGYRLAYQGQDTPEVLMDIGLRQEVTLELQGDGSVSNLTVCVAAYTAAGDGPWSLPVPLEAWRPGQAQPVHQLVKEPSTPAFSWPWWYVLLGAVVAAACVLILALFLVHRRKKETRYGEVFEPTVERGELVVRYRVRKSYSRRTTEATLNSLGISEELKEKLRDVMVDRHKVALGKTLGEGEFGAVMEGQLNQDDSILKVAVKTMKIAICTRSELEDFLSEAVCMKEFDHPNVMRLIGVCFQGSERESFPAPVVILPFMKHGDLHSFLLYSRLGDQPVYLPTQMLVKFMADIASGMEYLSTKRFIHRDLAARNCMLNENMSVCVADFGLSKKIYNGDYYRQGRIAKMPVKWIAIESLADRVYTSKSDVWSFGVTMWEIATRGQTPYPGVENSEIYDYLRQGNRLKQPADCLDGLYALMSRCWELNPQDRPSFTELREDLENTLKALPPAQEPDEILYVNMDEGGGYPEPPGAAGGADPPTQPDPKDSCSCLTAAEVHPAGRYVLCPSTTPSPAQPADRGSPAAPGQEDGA
UniProt Q8NE63, whole entry, stated change not applied: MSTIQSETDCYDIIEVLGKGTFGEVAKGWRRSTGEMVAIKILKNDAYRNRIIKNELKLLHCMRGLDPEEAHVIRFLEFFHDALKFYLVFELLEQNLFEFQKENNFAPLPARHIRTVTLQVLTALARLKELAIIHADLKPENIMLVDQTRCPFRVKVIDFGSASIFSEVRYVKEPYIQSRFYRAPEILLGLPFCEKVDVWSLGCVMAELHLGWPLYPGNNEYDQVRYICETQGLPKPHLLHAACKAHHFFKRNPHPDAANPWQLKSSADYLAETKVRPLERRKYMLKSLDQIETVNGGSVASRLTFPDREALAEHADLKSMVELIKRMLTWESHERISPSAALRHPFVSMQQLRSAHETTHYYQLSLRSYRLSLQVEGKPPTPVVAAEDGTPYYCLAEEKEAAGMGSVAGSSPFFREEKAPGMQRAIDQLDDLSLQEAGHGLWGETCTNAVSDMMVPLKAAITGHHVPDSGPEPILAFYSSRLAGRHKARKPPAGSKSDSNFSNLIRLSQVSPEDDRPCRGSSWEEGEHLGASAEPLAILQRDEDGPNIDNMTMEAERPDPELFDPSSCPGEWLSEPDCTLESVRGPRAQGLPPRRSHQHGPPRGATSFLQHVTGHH
UniProt Q16566, whole entry, stated change not applied: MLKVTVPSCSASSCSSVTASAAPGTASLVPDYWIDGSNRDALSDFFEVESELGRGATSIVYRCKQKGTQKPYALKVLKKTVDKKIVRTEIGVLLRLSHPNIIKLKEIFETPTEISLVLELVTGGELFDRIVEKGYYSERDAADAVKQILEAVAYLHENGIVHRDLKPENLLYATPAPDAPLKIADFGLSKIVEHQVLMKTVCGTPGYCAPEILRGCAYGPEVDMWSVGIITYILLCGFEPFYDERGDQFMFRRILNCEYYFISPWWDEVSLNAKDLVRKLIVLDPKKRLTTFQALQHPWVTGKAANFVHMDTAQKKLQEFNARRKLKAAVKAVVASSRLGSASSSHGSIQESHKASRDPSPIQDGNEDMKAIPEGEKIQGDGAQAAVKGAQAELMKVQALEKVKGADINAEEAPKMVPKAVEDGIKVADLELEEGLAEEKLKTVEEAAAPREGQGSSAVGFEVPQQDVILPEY
UniProt O96017, whole entry, stated change not applied: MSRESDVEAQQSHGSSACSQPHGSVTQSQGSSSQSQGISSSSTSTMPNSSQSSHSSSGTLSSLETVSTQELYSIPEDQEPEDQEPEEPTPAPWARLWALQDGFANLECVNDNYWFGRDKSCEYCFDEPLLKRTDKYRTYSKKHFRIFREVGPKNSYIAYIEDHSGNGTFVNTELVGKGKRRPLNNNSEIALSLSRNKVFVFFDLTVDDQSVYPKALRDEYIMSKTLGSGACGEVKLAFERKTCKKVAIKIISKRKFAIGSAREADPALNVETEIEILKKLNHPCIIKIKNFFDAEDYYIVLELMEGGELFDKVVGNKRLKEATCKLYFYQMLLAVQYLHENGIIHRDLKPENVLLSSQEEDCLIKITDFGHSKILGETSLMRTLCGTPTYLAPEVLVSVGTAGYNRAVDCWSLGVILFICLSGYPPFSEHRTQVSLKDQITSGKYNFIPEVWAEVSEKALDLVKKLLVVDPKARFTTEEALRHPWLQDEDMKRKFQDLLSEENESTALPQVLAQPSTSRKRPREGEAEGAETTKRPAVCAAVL
UniProt P49674, whole entry, stated change not applied: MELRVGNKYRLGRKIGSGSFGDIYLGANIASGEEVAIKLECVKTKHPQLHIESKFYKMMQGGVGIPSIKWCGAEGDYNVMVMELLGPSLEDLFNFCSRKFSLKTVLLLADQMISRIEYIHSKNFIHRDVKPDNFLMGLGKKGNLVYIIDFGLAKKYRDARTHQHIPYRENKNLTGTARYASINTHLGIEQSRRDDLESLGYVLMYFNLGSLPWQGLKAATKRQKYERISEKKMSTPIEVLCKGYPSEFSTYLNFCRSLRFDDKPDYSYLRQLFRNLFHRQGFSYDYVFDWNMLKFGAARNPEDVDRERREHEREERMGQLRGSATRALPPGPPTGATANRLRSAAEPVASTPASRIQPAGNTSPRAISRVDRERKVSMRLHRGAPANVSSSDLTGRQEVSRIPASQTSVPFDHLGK
UniProt P29376, 17-864, stated change not applied: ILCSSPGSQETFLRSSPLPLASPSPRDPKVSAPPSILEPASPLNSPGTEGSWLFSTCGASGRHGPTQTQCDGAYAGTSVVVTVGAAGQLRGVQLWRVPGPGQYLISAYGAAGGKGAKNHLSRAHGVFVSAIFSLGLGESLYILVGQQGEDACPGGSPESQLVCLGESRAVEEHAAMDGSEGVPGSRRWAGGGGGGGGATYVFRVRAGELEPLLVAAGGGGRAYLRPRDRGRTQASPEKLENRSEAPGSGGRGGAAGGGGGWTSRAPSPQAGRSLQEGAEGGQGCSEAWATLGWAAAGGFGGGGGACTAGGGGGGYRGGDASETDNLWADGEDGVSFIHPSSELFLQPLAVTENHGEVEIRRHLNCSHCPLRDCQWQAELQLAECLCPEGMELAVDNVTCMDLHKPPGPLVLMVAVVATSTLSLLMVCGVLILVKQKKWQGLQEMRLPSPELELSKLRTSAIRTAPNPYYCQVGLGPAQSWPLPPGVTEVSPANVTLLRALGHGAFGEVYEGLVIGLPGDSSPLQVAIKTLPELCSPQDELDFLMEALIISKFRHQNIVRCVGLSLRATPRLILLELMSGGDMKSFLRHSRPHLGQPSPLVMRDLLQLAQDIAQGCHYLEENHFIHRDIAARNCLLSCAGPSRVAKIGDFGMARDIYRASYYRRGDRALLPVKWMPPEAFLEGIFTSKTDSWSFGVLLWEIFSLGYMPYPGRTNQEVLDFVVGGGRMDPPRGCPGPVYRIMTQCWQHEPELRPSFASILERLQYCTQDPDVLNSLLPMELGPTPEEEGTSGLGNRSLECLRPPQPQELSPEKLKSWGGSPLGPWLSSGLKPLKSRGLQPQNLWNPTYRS
UniProt Q96L34, whole entry, stated change not applied: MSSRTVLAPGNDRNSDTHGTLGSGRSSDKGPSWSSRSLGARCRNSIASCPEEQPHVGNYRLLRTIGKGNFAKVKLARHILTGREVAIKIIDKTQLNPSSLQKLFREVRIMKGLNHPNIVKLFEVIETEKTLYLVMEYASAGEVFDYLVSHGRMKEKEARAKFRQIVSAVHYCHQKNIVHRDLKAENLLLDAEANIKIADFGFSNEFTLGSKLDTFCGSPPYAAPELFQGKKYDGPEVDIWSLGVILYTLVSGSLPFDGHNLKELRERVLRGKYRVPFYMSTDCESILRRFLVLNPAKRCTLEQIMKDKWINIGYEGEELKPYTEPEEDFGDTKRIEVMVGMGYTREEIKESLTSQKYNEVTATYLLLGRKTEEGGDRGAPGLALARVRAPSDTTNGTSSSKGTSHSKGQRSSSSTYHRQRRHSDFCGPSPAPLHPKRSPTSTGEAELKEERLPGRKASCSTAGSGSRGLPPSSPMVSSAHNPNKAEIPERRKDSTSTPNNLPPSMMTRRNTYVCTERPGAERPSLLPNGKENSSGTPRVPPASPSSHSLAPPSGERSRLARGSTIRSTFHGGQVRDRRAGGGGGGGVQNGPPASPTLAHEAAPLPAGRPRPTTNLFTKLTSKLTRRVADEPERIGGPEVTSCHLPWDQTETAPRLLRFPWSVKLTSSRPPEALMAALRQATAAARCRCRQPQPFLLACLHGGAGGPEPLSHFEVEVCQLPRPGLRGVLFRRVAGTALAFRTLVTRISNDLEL
UniProt P29323, 19-1055, stated change not applied: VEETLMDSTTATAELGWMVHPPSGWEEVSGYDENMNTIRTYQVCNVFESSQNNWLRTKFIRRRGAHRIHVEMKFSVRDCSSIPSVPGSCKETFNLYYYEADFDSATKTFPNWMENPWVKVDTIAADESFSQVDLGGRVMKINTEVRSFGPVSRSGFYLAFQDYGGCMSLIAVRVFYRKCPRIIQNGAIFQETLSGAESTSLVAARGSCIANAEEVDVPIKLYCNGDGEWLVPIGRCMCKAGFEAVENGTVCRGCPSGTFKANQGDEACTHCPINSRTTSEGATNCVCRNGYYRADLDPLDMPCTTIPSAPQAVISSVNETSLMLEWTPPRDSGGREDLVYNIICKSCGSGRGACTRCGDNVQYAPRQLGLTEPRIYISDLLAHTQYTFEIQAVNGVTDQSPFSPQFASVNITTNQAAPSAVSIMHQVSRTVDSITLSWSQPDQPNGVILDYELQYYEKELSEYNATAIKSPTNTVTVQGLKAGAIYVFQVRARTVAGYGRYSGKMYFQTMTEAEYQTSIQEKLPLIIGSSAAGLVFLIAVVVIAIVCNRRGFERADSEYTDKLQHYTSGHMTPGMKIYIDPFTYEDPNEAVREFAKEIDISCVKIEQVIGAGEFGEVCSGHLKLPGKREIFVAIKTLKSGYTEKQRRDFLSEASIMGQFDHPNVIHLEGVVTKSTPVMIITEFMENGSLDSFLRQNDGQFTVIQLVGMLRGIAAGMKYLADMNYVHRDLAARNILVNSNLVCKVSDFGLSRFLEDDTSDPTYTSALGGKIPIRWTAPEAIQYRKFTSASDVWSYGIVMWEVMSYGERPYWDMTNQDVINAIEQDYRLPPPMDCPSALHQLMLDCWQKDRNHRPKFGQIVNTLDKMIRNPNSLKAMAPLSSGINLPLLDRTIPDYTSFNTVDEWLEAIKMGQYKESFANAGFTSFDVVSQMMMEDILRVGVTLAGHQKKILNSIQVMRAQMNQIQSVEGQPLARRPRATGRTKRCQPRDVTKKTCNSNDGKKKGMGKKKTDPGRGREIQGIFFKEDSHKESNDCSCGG
UniProt Q9BXA7, whole entry, stated change not applied: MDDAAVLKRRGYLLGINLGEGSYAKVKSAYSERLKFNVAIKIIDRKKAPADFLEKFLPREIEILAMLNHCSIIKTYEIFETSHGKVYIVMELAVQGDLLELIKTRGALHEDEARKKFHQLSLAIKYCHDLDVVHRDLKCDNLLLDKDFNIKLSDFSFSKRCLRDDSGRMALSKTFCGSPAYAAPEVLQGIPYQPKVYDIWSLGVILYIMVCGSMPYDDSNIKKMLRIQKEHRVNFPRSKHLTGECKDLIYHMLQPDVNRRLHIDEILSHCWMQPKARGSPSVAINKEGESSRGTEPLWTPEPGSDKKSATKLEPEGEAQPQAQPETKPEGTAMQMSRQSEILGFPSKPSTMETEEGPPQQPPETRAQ

Legend:
Experiment in all cases: Kinase profiling in a biochemical assay panel (mobility shift assays and ELISA), %-inhibition at 1 μM; selectivity entropy
[1] = target: panel of more than 300 wild-type and mutant kinases (313 kinase panel) (Homo sapiens, UniProt Q9NYY3)
[2] = target: panel of more than 300 wild-type and mutant kinases (313 kinase panel) (Homo sapiens, UniProt Q16816)
[3] = target: panel of more than 300 wild-type and mutant kinases (313 kinase panel) (Homo sapiens, UniProt Q9UPE1)
[4] = target: panel of more than 300 wild-type and mutant kinases (313 kinase panel) (Homo sapiens, UniProt P08581, Y1235D)
[5] = target: panel of more than 300 wild-type and mutant kinases (313 kinase panel) (Homo sapiens, UniProt P30530)
[6] = target: panel of more than 300 wild-type and mutant kinases (313 kinase panel) (Homo sapiens, UniProt P27361); conditions: 1 µM
[7] = target: panel of more than 300 wild-type and mutant kinases (313 kinase panel) (Homo sapiens, UniProt Q13464); conditions: 1 µM
[8] = target: panel of more than 300 wild-type and mutant kinases (313 kinase panel) (Homo sapiens, UniProt Q8NE63); conditions: 1 µM
[9] = target: panel of more than 300 wild-type and mutant kinases (313 kinase panel) (Homo sapiens, UniProt Q9Y6E0); conditions: 1 µM
[10] = target: panel of more than 300 wild-type and mutant kinases (313 kinase panel) (Homo sapiens, UniProt Q16566); conditions: 1 µM
[11] = target: panel of more than 300 wild-type and mutant kinases (313 kinase panel) (Homo sapiens, UniProt O96017); conditions: 1 µM
[12] = target: panel of more than 300 wild-type and mutant kinases (313 kinase panel) (Homo sapiens, UniProt P15735); conditions: 1 µM
[13] = target: panel of more than 300 wild-type and mutant kinases (313 kinase panel) (Homo sapiens, UniProt Q9NRA0)
[14] = target: panel of more than 300 wild-type and mutant kinases (313 kinase panel) (Homo sapiens, UniProt P31751); conditions: 1 µM
[15] = target: panel of more than 300 wild-type and mutant kinases (313 kinase panel) (Homo sapiens, UniProt P49674); conditions: 1 µM
[16] = target: panel of more than 300 wild-type and mutant kinases (313 kinase panel) (Homo sapiens, UniProt P29376); conditions: 1 µM
[17] = target: panel of more than 300 wild-type and mutant kinases (313 kinase panel) (Homo sapiens, UniProt Q96L34); conditions: 1 µM
[18] = target: panel of more than 300 wild-type and mutant kinases (313 kinase panel) (Homo sapiens, UniProt P07949, S891A); conditions: 1 µM
[19] = target: panel of more than 300 wild-type and mutant kinases (313 kinase panel) (Homo sapiens, UniProt Q15375); conditions: 1 µM
[20] = target: panel of more than 300 wild-type and mutant kinases (313 kinase panel) (Homo sapiens, UniProt O75676); conditions: 1 µM
[21] = target: panel of more than 300 wild-type and mutant kinases (313 kinase panel) (Homo sapiens, UniProt P29323); conditions: 1 µM
[22] = target: panel of more than 300 wild-type and mutant kinases (313 kinase panel) (Homo sapiens, UniProt Q9BXA7); conditions: 1 µM
[23] = target: panel of more than 300 wild-type and mutant kinases (313 kinase panel) (Homo sapiens, UniProt Q16539); conditions: 1 µM

SMILES	%-inhibition of Erk1 [6] [%]	%-inhibition of ROCK1 [7] [%]	%-inhibition of HIPK4 [8] [%]	%-inhibition of MST3 [9] [%]	%-inhibition, CaMK4 [10] [%]	%-inhibition, CHK2 [11] [%]	%-inhibition of PHKG2 [12] [%]	%-inhibition, AKT2 [14] [%]	%-inhibition, CK1ε [15] [%]	%-inhibition of LTK [16] [%]	%-inhibition of MARK4 [17] [%]	%-inhibition of RET(S891A) [18] [%]	%-inhibition of EPHA7 [19] [%]	%-inhibition of MSK2 [20] [%]	%-inhibition of EPHB2 [21] [%]	%-inhibition of TSSK1 [22] [%]	%-inhibition of p38α [23] [%]	also measured
CNC(=O)c1ccccc1Sc1ccc2c(/C=C/c3ccccn3)n[nH]c2c1 [axitinib]	–	–	–	–	–	–	–	–	–	–	–	–	–	–	–	–	–	%-inhibition of PLK2 ([1]; kinase PLK2, 1 μM): 1%; %-inhibition of PHKG1 ([2]; kinase PHKG1, 1 μM): 0.391%; %-inhibition of MSSK1 ([3]; kinase MSSK1, 1 μM): 6%; %-inhibition of MET(Y1235D) ([4]; kinase MET(Y1235D), compound at 1 μM): 20%; %-inhibition, AXL ([5]; kinase AXL, 1 μM compound): 82%
COc1cc2ncnc(Nc3ccc(F)c(Cl)c3)c2cc1OCCCN1CCOCC1 [gefitinib]	-2.85	1.19	83	11	-3.42	27	8	4.29	-6	20	16	66	49	2	46	10	32	%-inhibition of SPHK2 ([13]; kinase SPHK2, 1 μM): -4.57%
C[C@@H]1CCN(C(=O)CC#N)C[C@@H]1N(C)c1ncnc2[nH]ccc12 [tofacitinib]	-1.44	23	-6	-1.58	-3.55	7	-3	-3.28	3.69	6.42	52	48	-2	-2.74	-3	-1.16	-3	%-inhibition of PLK2 ([1]; 1 µM): -2.13%; %-inhibition of PHKG1 ([2]; 1 µM): 1.3%; %-inhibition of SPHK2 ([13]; 1 µM): 2.77%; %-inhibition of MSSK1 ([3]; 1 µM): -6%; %-inhibition of MET(Y1235D) ([4]; 1 µM): 1.4%; %-inhibition, AXL ([5]; 1 µM): 3%
